Experiments:
Type in all cases: cell-based
[1] = system: elastin; experiment: Induction of elastin
Experimental: (§1) Higher elastin and collagen activity is indicative of anti-wrinkling or anti-aging effects. Activation of the antioxidant response element (ARE) pathway was also evaluated. The NF-E2-related factor (Nrf2) is a critical transcription factor in oxidative stress signaling. Nrf2 binds to the ARE and serves as a master regulator in cellular defense pathways. The ARE pathway mediates the transcriptional induction of a battery of genes that help to protect the cells against oxidative damage. Activation of the ARE promoter leads to more endogenous antioxidants and cell detoxification.

[2] = system: antioxidant response element (ARE) pathway; experiment: Activation of the antioxidant response element (ARE) pathway
Experimental: as §1

[3] = system: collagen 1A; experiment: Induction of collagen 1A
Experimental: as §1

## O=c1c(O)c(-c2ccc(O)c(O)c2)oc2cc(O)c(O)c(O)c12 [HI-9, quercetagetin]
[1]; final dose 10 μg/ml
  fold induction at 10 µg/mL: < 1.3
[1]; final dose 50 μg/ml
  fold induction at 50 µg/mL: 2
[1]; final dose 100 μg/ml
  fold induction at 100 µg/mL: 4
[2]; final dose 10 μg/ml
  fold induction at 10 µg/mL: < 1.3
[2]; final dose 50 μg/ml
  fold induction at 50 µg/mL: < 1.3
[2]; final dose 100 μg/ml
  fold induction at 100 µg/mL: < 1.3
[3]; final dose 10 μg/ml
  fold induction at 10 µg/mL: 1.6
[3]; final dose 50 μg/ml
  fold induction at 50 µg/mL: < 1.3
[3]; final dose 100 μg/ml
  fold induction at 100 µg/mL: < 1.3

Reference: patent US12233073B2, “Skin care formulations and skin cancer treatment” (Regents of the University of Minnesota, priority 2017, dated 2025)
